# Data from patent US20250304811A1, “Ink Jet Ink Composition And Recording Method” (SEIKO EPSON CORPORATION, priority 2024, published 2025).
# Test: Solubility in water
# Conditions: 20° C., 100 g of water
Substance,miscibility with water,solubility in water
"N,N-dimethylisopropanolamine",completely miscible with water,
n-(n-octyl)-2-pyrrolidone,,0.1 g/100 g of water
"1,4-cyclohexane dimethanol",,0.8 g/100 g of water
